## Binding of CDR-mutated scFvs to a peptide of the spike HR2 region

Values reported by Li et al. 2023, doi:10.1038/s41467-023-39022-2 (FLAb copy).

The target is the same throughout: PDVDLGDISGINAS, from the HR2 region of SARS-CoV-2 spike.

Ab-14 is the parent antibody, in scFv form: VH, then a 15-residue (Gly4Ser)3 linker, then VL. The heavy chain is unchanged in all variants.
VH: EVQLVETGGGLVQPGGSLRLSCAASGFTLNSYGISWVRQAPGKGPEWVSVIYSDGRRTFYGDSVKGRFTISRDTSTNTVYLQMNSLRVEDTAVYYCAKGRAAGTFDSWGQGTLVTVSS
VL: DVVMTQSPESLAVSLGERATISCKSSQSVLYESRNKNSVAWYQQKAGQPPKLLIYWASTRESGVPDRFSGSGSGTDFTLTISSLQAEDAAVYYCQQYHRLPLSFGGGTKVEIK

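The parent was found by panning a naive human phage display library on the peptide. Designed CDR sequences, proposed from the first random library and measured here. Group labels follow the data file (En: ensemble of fine-tuned language models; GP: Gaussian process model; HC: hill climbing; Gen: genetic algorithm; Gibbs: Gibbs sampling; a sequence that several methods proposed may carry one label only). The scFvs were displayed on barcoded MATa yeast, the peptide on MATalpha yeast. The frequency of each diploid, read from paired DNA barcodes, reflects how well the two displayed proteins bind. Scores were corrected for input abundance and mapped to Kd with protein pairs of known affinity run in the same pool. There are six technical replicates.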

Variants are written as CDR1, CDR2 and CDR3 of the light chain (limits as in the source). Parent: KSSQSVLYESRNKNSVA, WASTRES, QQYHRLPLS. This list holds designs with more than six substitutions. Each Kd is an estimate from the mating assay, the geometric mean of the replicates in which the pair was seen; lower is stronger. "no signal" means that the variant was in the library but no mating with the target was seen in any replicate; the authors take this as a sign of poor binding, and no number exists. The list is sorted by this average, lowest first, undetected variants last. Background: pairings of all light chain designs with three empty control strains gave a value in 4% of cases (median 430 nM, 5th percentile 38 nM). Values in that range, when seen in few replicates, are hard to tell from nonspecific mating.

The variant KLSQSVNYLTRVMNSVA | DNSTRES | QQYFRLPLS [En_HC] showed 410 pM (6 of 6 replicates). The variant TLTQSMLMESHNKNSVA | DLSTRGS | QQYHRLPLS [En_HC] showed 570 pM (6 of 6 replicates). With KVSQEQDYQSRNKNSVA | DASQRES | QQYHRLPLS [GP_Gibbs] the result was 610 pM (6 of 6 replicates). The variant KVSISMPYEERNKNSVA | NASQRMS | QQYHRLPLS [GP_Gibbs] showed 700 pM (6 of 6 replicates). The variant VLPDNLLMKESQYHSIA | NGDDRME | QQYMRLPLM [En_Gibbs] gave 890 pM (6 of 6 replicates). The variant MMGQVTGMGQRHRNNVA | QTSTREE | QQYDRLPLS [En_Gen] showed 920 pM (6 of 6 replicates). With MISNVMNTLTRAGNNVA | DLAEREK | QQYFRLPLS [En_Gen] the result was 940 pM (6 of 6 replicates). The variant KYSQNVLIMGRNKNNVA | EMTTREE | QQYDRLPLS [En_HC] showed 1.2 nM (6 of 6 replicates). The variant KLGGVTSYEMQNKNSVA | QMTTREN | QQYHRLPLS [En_HC] gave 1.3 nM (6 of 6 replicates).

For IISQSFLGEQHNKNSVA | QTSERGS | QQYDRLPLS [En_HC], the assay gave 1.4 nM (6 of 6 replicates). The variant HIDQVKAEQKTAENNIA | SGAQRVW | QQYSRLPFI [En_Gibbs] gave 1.6 nM (6 of 6 replicates). With TISAVMNHMTKNKMNVA | NMDMRED | QQYDRLPLS [En_Gen] the result was 1.7 nM (6 of 6 replicates). The variant QIYQAMHTLMQAKNNVA | DVTERNN | QQYFRLPLS [En_Gen] gave 1.9 nM (6 of 6 replicates). With KVSVGGLYEQRQKNSVA | NASTRES | QQYHRLPLS [GP_Gibbs] the result was 1.9 nM (6 of 6 replicates). The variant TISQMSTLFSQSIQNVA | EVSTREQ | QQYDRLPLM [En_Gen] showed 2.0 nM (6 of 6 replicates). The variant MISGSVMSESRLRNSVA | QTTTRES | QQYDRLPLS [En_HC] showed 2.6 nM (6 of 6 replicates). With QISGITGHMSTLKNNVA | EMVTRAN | QQYNRLPLS [En_Gen] the result was 2.8 nM (6 of 6 replicates). The variant MINMEVGIEDMKWQSVA | SAHVRAF | QQYGRLPFS [En_Gibbs] gave 4.3 nM (6 of 6 replicates).

The variant QLLMATMQETYNKNSVA | HAETRED | QSYHRLPLS [En_HC] gave 13 nM (6 of 6 replicates). The variant TISGLIMMPSRAHNSVA | NTSTRYQ | QQYHRLPLS [En_HC] showed 13 nM (6 of 6 replicates). The variant KISQSILFMSGKNNAIA | QMEMREE | QQYDRLPLS [En_HC] gave 17 nM (6 of 6 replicates). For KLSATYRFESQNKNNIA | EMTTREQ | QCYHRLPLS [En_HC], the assay gave 19 nM (6 of 6 replicates). For KLNSDSVLQWNINNSVA | EMSEVVQ | QQYVHLPLM [En_Gibbs], the assay gave 26 nM (6 of 6 replicates). With HMSMLTLQGQRHRNSVA | QMTTRVN | QQYDRLPLI [En_Gen] the result was 29 nM (6 of 6 replicates). The variant SLEMFTGMLNAYKSSIA | NATYLVQ | QQYYRLPIS [En_Gibbs] showed 30 nM (6 of 6 replicates). The variant ALALTLHQVDSQMNNIA | EGMERES | QQYNRLPLG [En_Gibbs] gave 32 nM (6 of 6 replicates). The variant HMSMLTMMGMRQRNSVA | QMTTREN | QQYDRLPLA [En_Gen] showed 37 nM (4 of 6 replicates).

For MISQILNMGQFAINSVA | QASIRNE | QQYDRLPLM [En_Gen], the assay gave 43 nM (6 of 6 replicates). The variant MISQLYNMGSFAINSVA | QAQTRNE | QQYDRLPLI [En_Gen] showed 48 nM (6 of 6 replicates). For MVTQMAMTGMTNKRSVA | NAEMREN | QQYHRLPLI [En_Gen], the assay gave 96 nM (3 of 6 replicates). The variant MLSEVLHMLGVKKNSIA | DLVIRAN | QQYHRLPLQ [En_Gen] gave 110 nM (2 of 6 replicates). With QLDHQLQYDDASKKAVA | EMTEVTT | QQYHRLPLT [En_Gibbs] the result was 130 nM (6 of 6 replicates). With TLSQMSGVESVKRNNVA | ENSTREK | QQYDRLPLA [En_Gen] the result was 190 nM (5 of 6 replicates). For TIGASLMYGSRNRSNVA | EVSERPN | QQYDRLPLM [En_Gen], the assay gave 240 nM (3 of 6 replicates). The variant MISQLINMGQFAINSVA | QASIRCN | QQYDRLPLT [En_Gen] showed 570 nM (2 of 6 replicates). For FMEMDFDGNSVNHNSIA | SEEVVTR | QHYARLPLS [En_Gibbs], the assay gave no signal (0 of 6 replicates).

For ALSFEMESPHNHSNNVA | SESKLCS | QQYFTLPLS [En_Gibbs], the assay gave no signal (0 of 6 replicates).

The last 4 entries again:

| CDR-L1 | CDR-L2 | CDR-L3 | group | Kd (apparent) | replicates with signal |
|---|---|---|---|---|---|
| TIGASLMYGSRNRSNVA | EVSERPN | QQYDRLPLM | En_Gen | 240 nM | 3/6 |
| MISQLINMGQFAINSVA | QASIRCN | QQYDRLPLT | En_Gen | 570 nM | 2/6 |
| FMEMDFDGNSVNHNSIA | SEEVVTR | QHYARLPLS | En_Gibbs | no signal | 0/6 |
| ALSFEMESPHNHSNNVA | SESKLCS | QQYFTLPLS | En_Gibbs | no signal | 0/6 |

In the paper, a design with two or fewer of six values counts as a poor binder. Of ten entries with the parent sequence, four were seen in most replicates (averages 2.2 nM to 240 nM), three in one and three in none, so single entries are noisy. Values of this round are not directly comparable with the first-round values of the same sequences.